Values of other authors as cited in patent publication US4246194A, “Amino-hydroxy-alkyl sulfonic acid-zwitterions” (priority 1979, dated 1981).

Settings: cited from earlier work

Q: Which buffering capacity (above pH 7.5) does the source give for phosphate here?
A: poor buffering capacity

Q: What about the “precipitation of polyvalent cations” value (in many systems) of the same substance?
A: tends to precipitate most polyvalent cations
